Experimental data taken from the NIST ThermoML archive (doi:10.1016/j.jct.2012.03.005).

Assay: activity coefficient (dimensionless); of the first substance listed, at infinite dilution; xn = mol fraction of the nth substance listed
Conditions: 101 kPa, Liquid, Chromatography, x1 = 0

activity coefficient (308.15 K): 247 ± 17 | activity coefficient (318.15 K): 221 ± 15 | activity coefficient (328.15 K): 199 ± 14 | activity coefficient (338.15 K): 179 ± 12 | activity coefficient (348.15 K): 165 ± 11
Structure (SMILES): CCCCOCCCC [dibutyl ether] + CCn1cc[n+](C)c1.CS(=O)(=O)[O-]

Numbers after ± are expanded uncertainties.
